# Columns and labels:
# By UniProt entry, the sequences of proteins in these tests, tags left out. Residues count along the entry.
# UniProt Q8IW41, whole entry: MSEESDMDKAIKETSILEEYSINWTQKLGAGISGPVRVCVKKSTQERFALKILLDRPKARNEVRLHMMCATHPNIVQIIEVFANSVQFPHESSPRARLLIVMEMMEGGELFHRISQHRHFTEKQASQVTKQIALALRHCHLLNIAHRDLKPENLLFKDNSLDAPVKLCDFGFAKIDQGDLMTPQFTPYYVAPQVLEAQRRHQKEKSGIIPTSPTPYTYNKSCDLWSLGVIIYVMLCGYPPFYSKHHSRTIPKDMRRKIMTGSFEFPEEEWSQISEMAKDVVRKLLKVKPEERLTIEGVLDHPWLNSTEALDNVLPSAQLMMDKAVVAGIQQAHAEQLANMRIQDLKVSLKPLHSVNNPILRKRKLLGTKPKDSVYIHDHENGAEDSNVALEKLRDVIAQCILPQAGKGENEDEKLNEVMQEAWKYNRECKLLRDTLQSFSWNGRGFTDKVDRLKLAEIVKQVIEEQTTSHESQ
# UniProt Q13557, whole entry: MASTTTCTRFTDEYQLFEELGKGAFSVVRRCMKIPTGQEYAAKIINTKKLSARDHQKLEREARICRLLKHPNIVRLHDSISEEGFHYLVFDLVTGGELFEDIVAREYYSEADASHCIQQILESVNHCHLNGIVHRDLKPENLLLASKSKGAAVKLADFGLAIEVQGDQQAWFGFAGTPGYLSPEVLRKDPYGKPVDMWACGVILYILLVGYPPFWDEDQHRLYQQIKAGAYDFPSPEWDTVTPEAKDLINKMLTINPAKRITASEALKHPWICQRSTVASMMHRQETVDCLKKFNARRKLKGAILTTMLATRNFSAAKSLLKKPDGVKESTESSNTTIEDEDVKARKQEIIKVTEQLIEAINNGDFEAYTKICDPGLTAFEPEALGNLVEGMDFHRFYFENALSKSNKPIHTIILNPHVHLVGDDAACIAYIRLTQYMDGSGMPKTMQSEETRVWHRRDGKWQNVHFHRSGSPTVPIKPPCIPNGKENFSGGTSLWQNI
# UniProt Q16512, whole entry: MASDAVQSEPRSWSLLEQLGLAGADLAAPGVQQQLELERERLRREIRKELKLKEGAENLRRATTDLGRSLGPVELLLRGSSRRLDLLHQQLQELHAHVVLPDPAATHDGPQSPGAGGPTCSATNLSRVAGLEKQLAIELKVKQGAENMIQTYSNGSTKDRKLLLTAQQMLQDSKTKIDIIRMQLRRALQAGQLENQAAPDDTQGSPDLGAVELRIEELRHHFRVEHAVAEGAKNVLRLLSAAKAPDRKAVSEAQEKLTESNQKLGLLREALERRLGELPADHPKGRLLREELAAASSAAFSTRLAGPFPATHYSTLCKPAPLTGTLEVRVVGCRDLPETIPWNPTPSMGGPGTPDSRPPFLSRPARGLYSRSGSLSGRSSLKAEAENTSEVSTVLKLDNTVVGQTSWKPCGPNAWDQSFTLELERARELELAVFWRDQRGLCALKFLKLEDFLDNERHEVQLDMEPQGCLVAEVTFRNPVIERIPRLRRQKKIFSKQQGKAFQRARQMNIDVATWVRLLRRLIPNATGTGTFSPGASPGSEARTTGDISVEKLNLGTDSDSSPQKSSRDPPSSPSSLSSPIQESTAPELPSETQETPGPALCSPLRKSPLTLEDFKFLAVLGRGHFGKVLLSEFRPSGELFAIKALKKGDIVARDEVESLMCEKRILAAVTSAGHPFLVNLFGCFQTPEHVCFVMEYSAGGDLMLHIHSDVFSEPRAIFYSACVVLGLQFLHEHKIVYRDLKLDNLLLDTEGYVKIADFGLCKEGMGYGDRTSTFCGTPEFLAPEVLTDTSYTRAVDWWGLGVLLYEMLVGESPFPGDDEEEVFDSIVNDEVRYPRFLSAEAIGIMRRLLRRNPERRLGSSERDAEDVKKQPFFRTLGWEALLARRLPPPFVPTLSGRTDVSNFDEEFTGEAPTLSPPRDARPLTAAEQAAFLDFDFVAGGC
# UniProt P51817, whole entry: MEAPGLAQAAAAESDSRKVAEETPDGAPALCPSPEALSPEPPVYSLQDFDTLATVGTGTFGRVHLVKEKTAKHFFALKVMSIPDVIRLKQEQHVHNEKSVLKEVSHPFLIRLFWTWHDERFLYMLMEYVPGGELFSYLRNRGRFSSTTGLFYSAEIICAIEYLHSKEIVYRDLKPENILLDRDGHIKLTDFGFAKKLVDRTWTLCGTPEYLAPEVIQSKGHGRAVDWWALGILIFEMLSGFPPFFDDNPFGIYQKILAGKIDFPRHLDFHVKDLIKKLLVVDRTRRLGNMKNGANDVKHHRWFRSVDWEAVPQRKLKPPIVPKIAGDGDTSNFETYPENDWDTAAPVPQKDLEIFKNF
# UniProt Q8WTQ7, 1-550 limits assumed: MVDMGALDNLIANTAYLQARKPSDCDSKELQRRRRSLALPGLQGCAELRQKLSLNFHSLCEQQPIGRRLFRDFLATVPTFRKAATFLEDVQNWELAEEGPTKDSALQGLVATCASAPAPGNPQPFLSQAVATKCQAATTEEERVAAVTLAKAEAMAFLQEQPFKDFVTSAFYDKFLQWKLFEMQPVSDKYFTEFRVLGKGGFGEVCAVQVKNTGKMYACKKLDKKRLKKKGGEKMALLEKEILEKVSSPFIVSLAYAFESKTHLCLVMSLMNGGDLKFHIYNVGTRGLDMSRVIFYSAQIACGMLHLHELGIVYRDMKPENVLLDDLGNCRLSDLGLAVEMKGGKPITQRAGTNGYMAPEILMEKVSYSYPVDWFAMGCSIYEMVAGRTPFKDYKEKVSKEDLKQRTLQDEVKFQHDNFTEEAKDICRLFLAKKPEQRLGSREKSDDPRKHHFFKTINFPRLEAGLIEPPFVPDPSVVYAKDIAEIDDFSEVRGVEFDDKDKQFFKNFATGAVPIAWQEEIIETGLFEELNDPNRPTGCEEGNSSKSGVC
# UniProt P24723, whole entry: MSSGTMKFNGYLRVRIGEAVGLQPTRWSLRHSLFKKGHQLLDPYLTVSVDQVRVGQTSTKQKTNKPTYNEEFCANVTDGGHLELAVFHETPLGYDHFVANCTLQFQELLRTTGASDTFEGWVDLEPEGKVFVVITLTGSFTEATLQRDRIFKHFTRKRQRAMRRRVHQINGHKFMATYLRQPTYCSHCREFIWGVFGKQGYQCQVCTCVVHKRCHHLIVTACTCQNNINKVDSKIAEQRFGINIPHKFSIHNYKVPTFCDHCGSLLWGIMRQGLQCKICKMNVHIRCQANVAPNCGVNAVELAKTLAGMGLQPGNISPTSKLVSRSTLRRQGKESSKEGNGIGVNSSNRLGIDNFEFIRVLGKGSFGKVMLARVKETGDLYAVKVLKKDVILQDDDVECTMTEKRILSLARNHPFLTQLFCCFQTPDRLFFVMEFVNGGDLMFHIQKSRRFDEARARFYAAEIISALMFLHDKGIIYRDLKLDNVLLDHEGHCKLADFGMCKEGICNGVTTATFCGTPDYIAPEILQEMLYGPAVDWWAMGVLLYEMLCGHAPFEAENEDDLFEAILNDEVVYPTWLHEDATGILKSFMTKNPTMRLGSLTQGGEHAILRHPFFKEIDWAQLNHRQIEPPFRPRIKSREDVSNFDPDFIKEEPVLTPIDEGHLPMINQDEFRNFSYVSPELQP
# UniProt P12931, whole entry: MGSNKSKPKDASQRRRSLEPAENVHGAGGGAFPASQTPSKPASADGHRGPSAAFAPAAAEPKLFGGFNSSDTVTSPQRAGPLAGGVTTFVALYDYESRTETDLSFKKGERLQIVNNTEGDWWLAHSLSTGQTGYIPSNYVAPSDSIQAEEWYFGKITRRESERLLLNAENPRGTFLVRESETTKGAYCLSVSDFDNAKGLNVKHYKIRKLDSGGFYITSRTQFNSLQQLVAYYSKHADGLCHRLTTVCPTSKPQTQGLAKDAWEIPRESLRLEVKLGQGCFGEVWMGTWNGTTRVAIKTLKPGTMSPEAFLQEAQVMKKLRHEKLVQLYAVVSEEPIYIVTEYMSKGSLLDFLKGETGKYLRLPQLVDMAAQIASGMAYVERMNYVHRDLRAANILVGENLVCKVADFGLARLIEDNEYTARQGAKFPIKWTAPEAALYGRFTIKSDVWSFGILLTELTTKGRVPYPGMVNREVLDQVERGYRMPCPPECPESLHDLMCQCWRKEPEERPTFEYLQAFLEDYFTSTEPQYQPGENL
# UniProt Q00537, whole entry: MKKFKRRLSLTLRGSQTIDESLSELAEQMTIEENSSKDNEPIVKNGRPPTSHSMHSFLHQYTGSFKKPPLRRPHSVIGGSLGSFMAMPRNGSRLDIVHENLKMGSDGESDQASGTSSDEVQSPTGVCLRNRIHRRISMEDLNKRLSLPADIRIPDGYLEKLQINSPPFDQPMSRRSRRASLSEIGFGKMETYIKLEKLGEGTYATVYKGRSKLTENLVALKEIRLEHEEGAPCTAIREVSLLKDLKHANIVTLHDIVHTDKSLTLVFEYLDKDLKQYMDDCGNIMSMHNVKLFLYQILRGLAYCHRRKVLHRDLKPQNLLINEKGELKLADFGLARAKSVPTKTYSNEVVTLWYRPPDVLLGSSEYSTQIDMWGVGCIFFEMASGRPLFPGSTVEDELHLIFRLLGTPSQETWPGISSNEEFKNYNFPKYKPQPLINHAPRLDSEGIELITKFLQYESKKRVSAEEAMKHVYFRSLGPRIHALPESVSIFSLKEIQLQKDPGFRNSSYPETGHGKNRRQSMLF
# UniProt P29322, 28-1005 limits assumed: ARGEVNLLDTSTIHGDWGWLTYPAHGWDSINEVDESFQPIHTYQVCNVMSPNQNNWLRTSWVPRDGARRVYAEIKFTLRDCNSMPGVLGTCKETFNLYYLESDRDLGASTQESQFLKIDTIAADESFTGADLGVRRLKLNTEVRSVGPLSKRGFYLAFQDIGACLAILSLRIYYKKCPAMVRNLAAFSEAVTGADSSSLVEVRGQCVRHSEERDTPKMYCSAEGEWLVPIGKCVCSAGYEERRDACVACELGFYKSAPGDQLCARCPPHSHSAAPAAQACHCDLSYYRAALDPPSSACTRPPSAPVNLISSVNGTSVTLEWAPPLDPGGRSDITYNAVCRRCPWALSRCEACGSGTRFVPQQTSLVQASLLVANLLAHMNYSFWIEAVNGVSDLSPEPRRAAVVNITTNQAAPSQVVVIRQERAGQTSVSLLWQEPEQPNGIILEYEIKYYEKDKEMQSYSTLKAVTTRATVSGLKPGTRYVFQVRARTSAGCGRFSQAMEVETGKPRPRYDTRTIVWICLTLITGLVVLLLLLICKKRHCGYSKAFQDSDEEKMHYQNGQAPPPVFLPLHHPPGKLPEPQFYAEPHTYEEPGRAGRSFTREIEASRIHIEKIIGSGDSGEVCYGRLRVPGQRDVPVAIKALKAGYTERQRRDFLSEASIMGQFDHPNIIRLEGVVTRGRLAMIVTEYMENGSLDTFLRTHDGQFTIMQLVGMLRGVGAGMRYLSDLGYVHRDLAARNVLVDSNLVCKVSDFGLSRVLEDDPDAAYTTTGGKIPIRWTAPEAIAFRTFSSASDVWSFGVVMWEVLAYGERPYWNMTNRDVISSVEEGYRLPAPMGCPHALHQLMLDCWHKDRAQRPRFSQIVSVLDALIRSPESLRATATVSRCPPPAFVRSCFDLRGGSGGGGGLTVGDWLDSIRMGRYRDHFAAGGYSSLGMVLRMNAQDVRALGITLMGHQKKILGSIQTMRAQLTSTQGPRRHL
# UniProt Q05513, whole entry: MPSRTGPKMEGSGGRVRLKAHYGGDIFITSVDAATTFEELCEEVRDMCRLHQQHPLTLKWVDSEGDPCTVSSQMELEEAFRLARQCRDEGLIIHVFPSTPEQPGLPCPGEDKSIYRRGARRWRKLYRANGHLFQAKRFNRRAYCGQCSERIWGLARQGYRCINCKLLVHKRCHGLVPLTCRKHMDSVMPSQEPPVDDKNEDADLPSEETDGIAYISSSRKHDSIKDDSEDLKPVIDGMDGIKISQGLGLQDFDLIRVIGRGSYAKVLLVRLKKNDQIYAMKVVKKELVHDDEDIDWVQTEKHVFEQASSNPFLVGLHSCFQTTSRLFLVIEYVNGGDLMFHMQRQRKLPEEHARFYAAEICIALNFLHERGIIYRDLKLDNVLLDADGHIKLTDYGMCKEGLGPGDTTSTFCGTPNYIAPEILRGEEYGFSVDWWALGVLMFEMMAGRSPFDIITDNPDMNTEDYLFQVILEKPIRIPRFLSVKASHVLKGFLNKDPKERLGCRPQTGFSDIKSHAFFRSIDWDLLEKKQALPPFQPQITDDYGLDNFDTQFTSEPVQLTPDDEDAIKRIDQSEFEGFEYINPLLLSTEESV
# UniProt P27361, whole entry: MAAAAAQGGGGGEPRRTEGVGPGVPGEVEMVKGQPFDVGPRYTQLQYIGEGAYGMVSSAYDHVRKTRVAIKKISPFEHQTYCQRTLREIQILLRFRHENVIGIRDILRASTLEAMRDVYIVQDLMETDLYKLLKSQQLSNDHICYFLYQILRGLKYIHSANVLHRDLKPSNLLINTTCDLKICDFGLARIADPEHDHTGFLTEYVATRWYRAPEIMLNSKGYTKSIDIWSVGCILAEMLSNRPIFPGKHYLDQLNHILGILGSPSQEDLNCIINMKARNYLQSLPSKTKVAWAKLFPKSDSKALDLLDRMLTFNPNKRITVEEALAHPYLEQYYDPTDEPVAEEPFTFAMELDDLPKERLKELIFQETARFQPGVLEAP
# Experiment in all cases: Kinase profiling, Z-Lyte
# STK24 (MST3) = STK24 (MST3) (Homo sapiens, UniProt Q9Y6E0); conditions: 1 μM, KmATP
# IKBKE (IKK epsilon) = IKBKE (IKK epsilon) (Homo sapiens, UniProt Q14164); conditions: 1 μM, KmATP
# FYN = FYN (Homo sapiens, UniProt P06241); conditions: 1 μM, KmATP
# AMPK A2/B1/G3 = AMPK A2/B1/G3 (Homo sapiens, UniProt P54646); conditions: 1 μM, KmATP
# DCAMKL1 (DCLK1) = DCAMKL1 (DCLK1) (Homo sapiens, UniProt O15075); conditions: 1 μM, KmATP
# MAPKAPK5 (PRAK) = MAPKAPK5 (PRAK) (Homo sapiens, UniProt Q8IW41); conditions: 1 μM, KmATP
# CAMK4 (CaMKIV) = CAMK4 (CaMKIV) (Homo sapiens, UniProt Q16566); conditions: 1 μM, KmATP
# TBK1 = TBK1 (Homo sapiens, UniProt Q9UHD2); conditions: 1 μM, KmATP
# CAMK2D = CAMK2D (Homo sapiens, UniProt Q13557); conditions: 1 μM, KmATP
# GRK4 = GRK4 (Homo sapiens, UniProt P32298); conditions: 1 μM, KmATP
# CAMK1G = CAMK1G (Homo sapiens, UniProt Q96NX5); conditions: 1 μM, KmATP
# EPHA4 = EPHA4 (Homo sapiens, UniProt P54764)
# PKN1 (PRK1) = PKN1 (PRK1) (Homo sapiens, UniProt Q16512); conditions: 1 μM, KmATP
# CSK = CSK (Homo sapiens, UniProt P41240); conditions: 1 μM, KmATP
# CHEK1 (CHK1) = CHEK1 (CHK1) (Homo sapiens, UniProt O14757); conditions: 1 μM, KmATP
# PRKX = PRKX (Homo sapiens, UniProt P51817); conditions: 1 μM, KmATP
# MARK1 (MARK) = MARK1 (MARK) (Homo sapiens, UniProt Q9P0L2); conditions: 1 μM, KmATP
# CDKL5 = CDKL5 (Homo sapiens, UniProt O76039); conditions: 1 μM, KmATP
# PLK3 = PLK3 (Homo sapiens, UniProt Q9H4B4); conditions: 1 μM, KmATP
# GRK7 = GRK7 (Homo sapiens, UniProt Q8WTQ7); conditions: 1 μM, KmATP
# PRKCH (PKC eta) = PRKCH (PKC eta) (Homo sapiens, UniProt P24723); conditions: 1 μM, KmATP
# PASK = PASK (Homo sapiens, UniProt Q96RG2); conditions: 1 μM, KmATP
# SYK = SYK (Homo sapiens, UniProt P43405); conditions: 1 μM, KmATP
# AMPK A1/B2/G2 = AMPK A1/B2/G2 (Homo sapiens, UniProt Q13131); conditions: 1 μM, KmATP
# JAK1 = JAK1 (Homo sapiens, UniProt P23458); conditions: 1 μM, KmATP
# AURKB (Aurora B) = AURKB (Aurora B) (Homo sapiens, UniProt Q96GD4); conditions: 1 μM, KmATP
# SRC Hu Phos = SRC Hu Phos (Homo sapiens, UniProt P12931)
# PLK2 = PLK2 (Homo sapiens, UniProt Q9NYY3); conditions: 1 μM, KmATP
# CDK17/cyclin Y = CDK17/cyclin Y (Homo sapiens, UniProt Q00537); conditions: 1 μM, KmATP
# PRKCI (PKC iota) = PRKCI (PKC iota) (Homo sapiens, UniProt P41743); conditions: 1 μM, KmATP
# EPHA8 = EPHA8 (Homo sapiens, UniProt P29322)
# PRKCE (PKC epsilon) = PRKCE (PKC epsilon) (Homo sapiens, UniProt Q02156); conditions: 1 μM, KmATP
# TYK2 = TYK2 (Homo sapiens, UniProt P29597); conditions: 1 μM, KmATP
# NIM1K = NIM1K (Homo sapiens, UniProt Q8IY84); conditions: 1 μM, KmATP
# GSK3B = GSK3B (Homo sapiens, UniProt P49841)
# PRKCZ (PKC zeta) = PRKCZ (PKC zeta) (Homo sapiens, UniProt Q05513); conditions: 1 μM, KmATP
# MAPK3 (ERK1) = MAPK3 (ERK1) (Homo sapiens, UniProt P27361); conditions: 1 μM, KmATP
# HCK = HCK (Homo sapiens, UniProt P08631); conditions: 1 μM, KmATP
# CSF1R (FMS) = CSF1R (FMS) (Homo sapiens, UniProt P07333); conditions: 1 μM, KmATP
structure (smiles),measurement,setting,value
"Cc1nc(C(F)(F)F)c2c(C(N)=O)c(N)n(-c3c(C)ccc(O)c3C)c2n1 (single isomer, unassigned)",MEAN INHIBITION,STK24 (MST3),6.812%
same,MEAN INHIBITION,IKBKE (IKK epsilon),3.320%
same,MEAN INHIBITION,FYN,60.587%
same,MEAN INHIBITION,AMPK A2/B1/G3,2.507%
same,MEAN INHIBITION,DCAMKL1 (DCLK1),0.527%
same,MEAN INHIBITION,MAPKAPK5 (PRAK),6.462%
same,MEAN INHIBITION,CAMK4 (CaMKIV),−0.707%
same,MEAN INHIBITION,TBK1,1.328%
same,MEAN INHIBITION,CAMK2D,17.732%
same,MEAN INHIBITION,GRK4,3.928%
same,MEAN INHIBITION,CAMK1G,6.787%
same,MEAN INHIBITION,"EPHA4; 1 μM, KmATP",34.195%
same,IC50,"EPHA4; 10-point CR, ATP 100.000 μM",1.14 µM
same,MEAN INHIBITION,PKN1 (PRK1),3.985%
same,MEAN INHIBITION,CSK,4.754%
same,MEAN INHIBITION,CHEK1 (CHK1),3.644%
same,MEAN INHIBITION,PRKX,1.119%
same,MEAN INHIBITION,MARK1 (MARK),6.666%
same,MEAN INHIBITION,CDKL5,−1.234%
same,MEAN INHIBITION,PLK3,24.992%
same,MEAN INHIBITION,GRK7,2.998%
same,MEAN INHIBITION,PRKCH (PKC eta),4.761%
same,MEAN INHIBITION,PASK,5.814%
same,MEAN INHIBITION,SYK,5.317%
same,MEAN INHIBITION,AMPK A1/B2/G2,21.257%
same,MEAN INHIBITION,JAK1,2.549%
same,MEAN INHIBITION,AURKB (Aurora B),6.308%
same,MEAN INHIBITION,"SRC Hu Phos; 1 μM, KmATP",72.168%
same,IC50,"SRC Hu Phos; 10-point CR, ATP 50.000 μM",0.185 µM
same,MEAN INHIBITION,PLK2,0.391%
same,MEAN INHIBITION,CDK17/cyclin Y,13.479%
same,MEAN INHIBITION,PRKCI (PKC iota),1.145%
same,MEAN INHIBITION,"EPHA8; 1 μM, KmATP",35.008%
same,IC50,"EPHA8; 10-point CR, ATP 100.000 μM",1.17 µM
same,MEAN INHIBITION,PRKCE (PKC epsilon),0.959%
same,MEAN INHIBITION,TYK2,0.594%
same,MEAN INHIBITION,NIM1K,0.982%
same,MEAN INHIBITION,"GSK3B; 1 μM, KmATP",46.076%
same,IC50,"GSK3B; 10-point CR, ATP 10.000 μM",0.635 µM
same,MEAN INHIBITION,PRKCZ (PKC zeta),13.234%
same,MEAN INHIBITION,MAPK3 (ERK1),−0.113%
same,MEAN INHIBITION,HCK,48.744%
same,MEAN INHIBITION,CSF1R (FMS),25.219%
